## AlphaSeq binding of Ab-91 heavy chain variants to a spike HR2 peptide

Binding partner: SARS-CoV-2 spike HR2 peptide, sequence PDVDLGDISGINAS.

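AAYL51 was designed without a model: most single CDR substitutions and a random sample of double and triple ones. The assay is AlphaSeq: two haploid yeast populations carry antibody and antigen on their surface. After mating in shaken culture at 30 °C for 16 h, diploids were selected and their barcode pairs sequenced. Each replicate has its own calibration line, from reference interactions of the BCL2 family. There are three technical replicates.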

Ab-91 is the parent antibody, in scFv form: VL, then a (GGGGS)3 linker, then VH. The light chain is unchanged in all variants.
VL: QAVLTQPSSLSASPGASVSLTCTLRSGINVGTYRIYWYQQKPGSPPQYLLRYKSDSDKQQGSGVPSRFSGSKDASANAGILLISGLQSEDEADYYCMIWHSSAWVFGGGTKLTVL
VH: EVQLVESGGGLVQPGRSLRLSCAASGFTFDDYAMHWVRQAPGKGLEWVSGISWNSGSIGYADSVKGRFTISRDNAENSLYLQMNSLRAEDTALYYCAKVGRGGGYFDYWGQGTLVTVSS

Positions count from residue 1 of the parent VH; S52P puts P in place of S.
Affinities are written as log10 Kd with Kd in nM; a lower number is a better binder.
Averages over replicates are reported, and they cover detected replicates only.
"ND" marks a missing value. The strain was present, yet no cells mated with the target were sequenced in that replicate, which points to weak or no binding.
Nonspecific signal, from three strains lacking the peptide, appeared in 21% of pairings of library AAYL51, centred on 4.54 (5% of these signals below 3.26); values are not corrected for it. For each scFv, signals with the empty controls are counted beside the result, with their mean in brackets.

changes | replicates, log10 nM | mean, log10 nM | signal with controls
S52P Y60K G103M | ND 4.72 5.47 | 5.09 | 4/9 (3.97)
F29K D30V Y60C | ND ND ND | ND | 1/9 (3.58)
F27D V99H G102M | ND ND ND | ND | 1/9 (2.87)
S52H V99K Y105D | ND ND 5.02 | 5.02 | 3/9 (5.24)
W53L V99D G104Y | ND 4.62 ND | 4.62 | 2/9 (4.60)
D30L Y32S G103M | ND ND 3.97 | 3.97 | 3/9 (5.09)
T28A D31F G59L | 3.19 ND 4.21 | 3.70 | 1/9 (4.43)
I51F A61D V99T | 4.90 ND ND | 4.90 | 1/9 (4.20)
I51L W53E R101Q | ND 2.54 ND | 2.54 | 0/9
Y105H D107G | ND ND ND | ND | 0/9
K65C V99K G102R | ND ND ND | ND | 0/9
I58K D62Q F106G | ND ND ND | ND | 1/9 (2.77)
F29T D30R | ND ND ND | ND | 0/9
G50F S52N G100D | 4.70 ND ND | 4.70 | 4/9 (5.04)
H35N G104R Y108L | 4.03 ND ND | 4.03 | 1/9 (3.30)
W53A G56H G104E | 4.31 ND ND | 4.31 | 2/9 (4.27)
Y32D A33R S57H | 4.22 ND ND | 4.22 | 0/9
S57F K65Y Y108N | 4.43 5.23 3.77 | 4.48 | 4/9 (4.71)
S52C S55E D62S | ND ND ND | ND | 0/9
F27M G56I S63P | 3.50 4.67 3.83 | 4.00 | 3/9 (4.47)
M34H I58G G103M | ND 5.46 ND | 5.46 | 2/9 (4.45)
I58H Y108K | 1.34 1.09 0.76 | 1.06 | 1/9 (4.83)
I51M W53Y G56A | 1.74 1.72 1.44 | 1.63 | 5/9 (5.06)
F29D I51H | ND 3.56 4.16 | 3.86 | 2/9 (5.02)
M34Q D62G K65Y | ND ND ND | ND | 1/9 (5.32)
Y32T I58L K65F | 3.21 3.13 3.51 | 3.28 | 4/9 (5.17)
F29A A61S Y105H | 5.45 4.56 ND | 5.01 | 4/9 (4.26)
D31V G100Y | ND 4.37 ND | 4.37 | 2/9 (4.32)
F27W D30R W53R | ND ND ND | ND | 0/9
F27K V99F Y105P | ND ND ND | ND | 1/9 (3.92)
G100N D107A | ND ND ND | ND | 2/9 (4.23)
R101V F106W | ND 2.20 2.37 | 2.28 | 0/9
T28H D31Q G102D | ND 4.94 3.90 | 4.42 | 3/9 (4.07)
A33P I51V D107R | 5.15 5.14 ND | 5.15 | 0/9
D31Q Y60P G102R | 5.46 5.29 5.61 | 5.45 | 4/9 (5.35)
G26K D31C S55T | 4.87 ND ND | 4.87 | 3/9 (5.04)
F27W D30K D31E | 3.03 3.44 3.06 | 3.18 | 6/9 (4.35)

The first 5 entries again:

| changes | replicates, log10 nM | mean, log10 nM | signal with controls |
|---|---|---|---|
| S52P Y60K G103M | ND 4.72 5.47 | 5.09 | 4/9 (3.97) |
| F29K D30V Y60C | ND ND ND | ND | 1/9 (3.58) |
| F27D V99H G102M | ND ND ND | ND | 1/9 (2.87) |
| S52H V99K Y105D | ND ND 5.02 | 5.02 | 3/9 (5.24) |
| W53L V99D G104Y | ND 4.62 ND | 4.62 | 2/9 (4.60) |

Data: MIT Lincoln Laboratory AlphaSeq set, Engelhart et al. 2022, doi:10.1038/s41597-022-01779-4, as distributed in FLAb.